# Experimental data as given in BindingDB's records for patent US9951014 (Northwestern University, 2018).
# By UniProt entry, the sequences of proteins in these tests, tags left out.
# UniProt P29475, whole entry: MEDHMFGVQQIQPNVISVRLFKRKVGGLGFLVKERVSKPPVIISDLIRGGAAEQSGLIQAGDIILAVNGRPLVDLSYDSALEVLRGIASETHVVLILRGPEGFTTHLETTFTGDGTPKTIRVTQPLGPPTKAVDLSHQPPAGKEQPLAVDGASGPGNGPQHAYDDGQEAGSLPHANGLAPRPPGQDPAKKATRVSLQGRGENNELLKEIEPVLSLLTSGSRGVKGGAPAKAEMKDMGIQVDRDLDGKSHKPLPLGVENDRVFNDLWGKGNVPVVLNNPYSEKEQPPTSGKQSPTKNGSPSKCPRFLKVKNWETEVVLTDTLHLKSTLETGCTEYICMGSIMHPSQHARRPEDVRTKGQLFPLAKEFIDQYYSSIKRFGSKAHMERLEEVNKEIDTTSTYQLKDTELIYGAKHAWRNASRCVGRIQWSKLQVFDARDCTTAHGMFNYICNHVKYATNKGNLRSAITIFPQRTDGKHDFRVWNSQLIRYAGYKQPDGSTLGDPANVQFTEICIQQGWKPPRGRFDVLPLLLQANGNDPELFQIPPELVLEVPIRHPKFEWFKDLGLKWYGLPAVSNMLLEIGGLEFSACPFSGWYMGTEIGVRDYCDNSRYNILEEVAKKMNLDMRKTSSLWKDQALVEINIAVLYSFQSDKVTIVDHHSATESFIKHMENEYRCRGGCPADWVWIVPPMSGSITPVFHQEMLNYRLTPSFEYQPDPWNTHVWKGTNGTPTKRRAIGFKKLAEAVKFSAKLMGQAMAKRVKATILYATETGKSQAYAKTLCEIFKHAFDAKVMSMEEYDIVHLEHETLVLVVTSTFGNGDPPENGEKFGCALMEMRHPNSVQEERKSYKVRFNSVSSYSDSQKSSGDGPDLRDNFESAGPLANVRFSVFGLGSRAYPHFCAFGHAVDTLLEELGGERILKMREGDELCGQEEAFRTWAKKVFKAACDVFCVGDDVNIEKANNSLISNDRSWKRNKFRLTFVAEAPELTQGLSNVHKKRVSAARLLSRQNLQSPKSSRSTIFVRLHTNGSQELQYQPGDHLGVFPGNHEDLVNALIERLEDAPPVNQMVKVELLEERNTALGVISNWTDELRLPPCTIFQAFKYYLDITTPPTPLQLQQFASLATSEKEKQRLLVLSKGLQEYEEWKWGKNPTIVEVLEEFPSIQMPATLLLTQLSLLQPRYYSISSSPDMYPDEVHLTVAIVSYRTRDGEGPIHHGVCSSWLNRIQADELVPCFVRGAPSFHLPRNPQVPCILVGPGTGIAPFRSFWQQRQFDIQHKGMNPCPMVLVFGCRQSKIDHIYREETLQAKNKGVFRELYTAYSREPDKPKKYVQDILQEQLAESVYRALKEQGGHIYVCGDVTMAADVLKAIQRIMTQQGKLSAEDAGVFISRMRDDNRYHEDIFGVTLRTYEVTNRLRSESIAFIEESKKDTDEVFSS
# Target: Nitric oxide synthase, brain (Homo sapiens, UniProt P29475)
# Assay: Inhibition Assay
structure (smiles),measurement,value
"Cc1cc(N)nc(CCc2cccc(CCc3cc(C)cc(N)n3)c2)c1 [US9951014, Name 31a]",Ki,49 nM
